Measurements as given in publication PMC3510080, “Identification of Compounds with Anti-Proliferative Activity against Trypanosoma brucei brucei Strain 427 by a Whole Cell Viability Based HTS Campaign” (PLoS Neglected Tropical Diseases, 2012).
Several values for one entry are separate records, joined by “and”; a condition that tells them apart may be missing. Identical values can stand only once.

How the values were obtained:
[1] = system: T.b. brucei bloodstream form lister 427; experiment: T.b. brucei Alamar Blue viability estimation assay (384-well HTS, retest and rescreen); type: cell-based, Trypanosoma brucei brucei
Description: T.b. brucei lister 427 cells were maintained in log phase growth in 25 cm^2 tissue culture flasks (Corning, NY, USA) by sub-culturing at either 24 or 48 hour intervals. Cells were grown in HMI-9 medium, supplemented with 10% fetal calf serum (FCS) and 100 IU/ml penicillin/streptomycin (Invitrogen, Carlsbad, California, USA) with incubation at 5% CO2 at 37°C in humidified conditions. HEK293 cells were maintained in high glucose DMEM with L-glutamine, supplemented with 1× non-essential amino acids (NEAA; Invitrogen, USA) and 1 mM sodium pyruvate. Growth conditions were in 5% CO2 at 37°C, under humidified conditions.
All reagent and cell additions were made with a Multidrop liquid handler (Thermo Scientific, Newington, NH, USA) under sterile conditions. […] Wells were read at 535 nm (excitation) and 590 nm (emission) wavelengths on a Victor II Wallac plate reader (PerkinElmer, USA). […]
Primary screening of the library, consisting of 87,296 compounds in two hundred and forty eight 384-well plates, was undertaken in single point against T.b. brucei. […] Test compounds were added to plates in batches of 20 at two hour intervals, to maintain the timing of additions and reads.
Compound activity was calculated as the percentage inhibition in relation to positive and negative controls. […]

T.b. rhodesiense STIB900 = experiment: T. b. rhodesiense STIB900 assay (resazurin); SI versus L6 cells; type: cell-based, Trypanosoma brucei rhodesiense; settings: relative to L6 cells
Description: (§1) L6 rat skeletal myoblasts, [29] were purchased from the American Type Culture Collection (ATCC, Rockville, MD, USA; ATCC number CRL 1458). This cell line was used for cytotoxicity testing to calculate an SI against T.b. rhodesiense and screened alongside the T.b. rhodesiense, P. falciparum, T. cruzi and L. donovani assays. L6 were also the host cells for the T. cruzi assay. Assays were performed in 96-well microtiter plates, each well containing 100 µl of RPMI 1640 medium supplemented with 1% L-glutamine (200 mM), 10% FCS, and 4000 L6 cells. Serial drug dilutions of eleven 3-fold dilution steps covering a range from 100 to 0.002 µg/ml were prepared. […] Then the plates were read with a Spectramax Gemini XS microplate fluorometer (Molecular Devices Cooperation, Sunnyvale, CA, USA) using an excitation wavelength of 536 nm and an emission wavelength of 588 nm. Data was analysed using the microplate reader software Softmax Pro (Molecular Devices, USA). […]
T.b. rhodesiense STIB900 stock was isolated in 1982 from a human patient in Tanzania and after several mouse passages cloned and adapted to axenic culture conditions. […] Plates were then read with a Spectramax Gemini XS microplate fluorometer (Molecular Devices, USA) using an excitation wavelength of 536 nm and an emission wavelength of 588 nm. Data was analysed using the microplate reader software Softmax Pro (Molecular Devices, USA). […]

[2] = system: T. cruzi Tulahuen strain C2C4; experiment: T. cruzi Tulahuen strain C2C4 β-galactosidase assay; SI versus L6 cells; type: cell-based, Trypanosoma cruzi; settings: relative to L6 cells
Description: as §1
Rat skeletal myoblasts (L6 cells) were seeded in 96-well microtitre plates at 2000 cells/well in 100 µl RPMI 1640 medium with 10% FCS and 2 mM l-glutamine. […] A colour reaction developed within 2–6 hours that could be read photometrically at 540 nm. Data were transferred into the graphic programme Softmax Pro (Molecular Devices, USA), which calculated IC50 values. […]

[3] = system: L. donovani strain MHOM/ET/67/L82 axenic amastigotes; experiment: L. donovani axenic amastigote fluorescence assay; SI versus L6 cells; type: cell-based, Leishmania donovani; settings: relative to L6 cells
Description: as §1
Amastigotes of L. donovani strain MHOM/ET/67/L82 were grown in axenic culture at 37°C in SM medium at pH 5.4 supplemented with 10% heat-inactivated FCS under an atmosphere of 5% CO2 in air. […] The plates were then read with a Spectramax Gemini XS microplate fluorometer (Molecular Devices, USA) using an excitation wavelength of 536 nm and an emission wavelength of 588 nm. Data was analysed using the software Softmax Pro (Molecular Devices, USA). […]

P. falciparum K1 strain = experiment: P. falciparum 3H-hypoxanthine incorporation assay; SI versus L6 cells; type: cell-based, Plasmodium falciparum; settings: relative to L6 cells
Description: as §1
Compounds dissolved in DMSO at 10 mg/ml were added to parasite cultures incubated in RPMI 1640 medium without hypoxanthine, supplemented with HEPES (5.94 g/l), NaHCO3 (2.1 g/l), neomycin (100 U/ml), Albumax (5 g/l) and washed human A^+ red blood cells at 2.5% haematocrit (0.3% parasitaemia). […] IC50 values were calculated from sigmoidal inhibition curves using Microsoft Excel.

T.b. brucei = experiment: Determination of the cidal action of compounds (MIC and parasite counts); type: cell-based, Trypanosoma brucei brucei; settings: cell counts at 24, 48 and 72 hours (29 hours from Presto Blue)
Description: The MIC was extrapolated as the minimum concentration at which there was a plateau of activity in the assay (>95% activity).

With `O=C(Nc1ccc(Cl)c(-c2nc3ncccc3o2)c1)c1ccco1` [Compound 7] the “Selectivity Index T.B” value [1] was >344, the “Selectivity Index T.R” value (T.b. rhodesiense STIB900) was 39 and 38.4 and the “Selectivity Index T.C” value [2] was 98.6. For the same molecule, the “Selectivity Index L.D” value [3] was 12.5, the “Selectivity Index P.F” value (P. falciparum K1 strain) was 2.92 and the “incubation time at the MIC for complete clearance of T.b. brucei parasites” value (T.b. brucei) was 72 h.
